Experimental data: ChEMBL document CHEMBL1125472, “5-lipoxygenase: properties, pharmacology, and the quinolinyl(bridged)aryl class of inhibitors” (J Med Chem, 1992)

Amino acid sequences for entries named in this document (tags omitted). A change or cut given only in a name is not applied to a line headed by its entry.
UniProt P35354: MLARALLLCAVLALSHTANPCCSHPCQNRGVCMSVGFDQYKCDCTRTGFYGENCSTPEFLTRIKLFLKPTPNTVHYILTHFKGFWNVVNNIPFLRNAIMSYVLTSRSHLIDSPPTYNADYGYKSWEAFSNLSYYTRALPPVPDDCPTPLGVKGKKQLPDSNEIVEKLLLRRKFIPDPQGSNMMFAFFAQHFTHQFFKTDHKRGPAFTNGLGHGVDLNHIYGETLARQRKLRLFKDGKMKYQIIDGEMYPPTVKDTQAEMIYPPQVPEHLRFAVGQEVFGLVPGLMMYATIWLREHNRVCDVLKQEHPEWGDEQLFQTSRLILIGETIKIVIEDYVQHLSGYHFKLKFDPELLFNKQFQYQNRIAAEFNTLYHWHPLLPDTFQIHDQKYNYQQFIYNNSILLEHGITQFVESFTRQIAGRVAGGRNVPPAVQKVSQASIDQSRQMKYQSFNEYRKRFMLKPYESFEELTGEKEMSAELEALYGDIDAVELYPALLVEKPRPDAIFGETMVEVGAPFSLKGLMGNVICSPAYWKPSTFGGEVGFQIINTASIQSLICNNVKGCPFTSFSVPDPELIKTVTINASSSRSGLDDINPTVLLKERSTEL
UniProt P23219: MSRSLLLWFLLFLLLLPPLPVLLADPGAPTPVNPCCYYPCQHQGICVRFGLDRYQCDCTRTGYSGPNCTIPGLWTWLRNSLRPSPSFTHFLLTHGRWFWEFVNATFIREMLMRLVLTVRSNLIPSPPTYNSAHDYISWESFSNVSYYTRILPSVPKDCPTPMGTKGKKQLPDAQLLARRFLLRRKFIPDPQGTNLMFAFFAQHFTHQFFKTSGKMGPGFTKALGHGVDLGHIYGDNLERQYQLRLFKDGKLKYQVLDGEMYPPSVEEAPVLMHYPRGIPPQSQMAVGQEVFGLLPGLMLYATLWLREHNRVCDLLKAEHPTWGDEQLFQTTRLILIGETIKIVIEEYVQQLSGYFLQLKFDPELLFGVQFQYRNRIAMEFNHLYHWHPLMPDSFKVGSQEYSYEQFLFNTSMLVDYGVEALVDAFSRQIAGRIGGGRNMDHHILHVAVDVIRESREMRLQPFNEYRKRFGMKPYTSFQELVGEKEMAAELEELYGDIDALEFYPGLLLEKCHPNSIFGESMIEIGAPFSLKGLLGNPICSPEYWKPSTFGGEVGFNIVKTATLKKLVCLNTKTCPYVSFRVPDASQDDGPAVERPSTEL

Biological target: Cyclooxygenase (Homo sapiens, UniProt P35354+P23219)
Assay: The compound was tested for inhibitory activity against Prostaglandin G/H synthase in human polymorphonuclear leukocytes[PMNS]
Type: cell-based

NC1=NN(c2cccc(C(F)(F)F)c2)CC1 [BW-755C]
IC50: 12 µM
